Measurements: patent publication US9962369B2, “Methods and compositions for transdermal delivery” (SPRAYABLE HOLDINGS, INC., priority 2014, dated 2018)

Tested on: human skin tissue
Test: Penetration rate of AI compound in AI-helper composition through human skin in vitro, modified Franz cells
Conditions: for Skin penetration rate of melatonin: melatonin 1% w/v, 20° C.

Q: What does the source list for `CC1=C(/C=C/C(C)=C/C=C/C(C)=C/C=C/C=C(C)/C=C/C=C(C)/C=C/C2=C(C)C(=O)[C@@H](O)CC2(C)C)C(C)(C)C[C@H](O)C1=O` [Astaxanthin]?
A: Skin penetration rate of AI compound (with D-tryptophan isopropyl ester hydrochloride 6 % w/v in water, AI compound 0.5 % w/v, 25 °C): 13.131 ± 2.102 μg/cm^2/h; Skin penetration rate of AI compound (with L-tryptophan isopropyl ester hydrochloride 6 % w/v in water, AI compound 0.5 % w/v, 25 °C): 13.341 ± 2.762 μg/cm^2/h

Q: `COc1ccc2[nH]cc(CCNC(C)=O)c2c1` [Melatonin] was tested. Which “Skin penetration rate of melatonin” value (Tryptophan isopropyl ester•HA 6% w/v, HA = 1/3H3PO4, water) did it give?
A: 15.321 ± 1.497 μg/cm^2/h

Q: What about the “Skin penetration rate of melatonin” value (Tryptophan isopropyl ester•HA 6% w/v, HA = Acetic acid, water) of the same compound?
A: 15.456 ± 1.712 μg/cm^2/h

Q: And the “Skin penetration rate of melatonin” value (Tyrosine isopropyl ester•HA 6% w/v, HA = HCl, water)?
A: 16.313 ± 1.753 μg/cm^2/h

Q: What about the “Skin penetration rate of AI compound” value (with D-tryptophan butyl ester hydrochloride 6 % w/v in water, AI compound 1 % w/v, 20 °C) of the same compound?
A: 15.457 ± 1.435 μg/cm^2/h

Q: What about the “Skin penetration rate of AI compound” value (with L-tryptophan ethyl ester hydrochloride 6 % w/v in water, AI compound 1 % w/v, 20 °C) of the same compound?
A: 16.310 ± 1.236 μg/cm^2/h

Q: `Oc1ccc(C=Cc2cc(O)cc(O)c2)cc1` [Resveratrol] was tested. Which “Skin penetration rate of AI compound” value (with D-isoleucine isopropyl ester hydrochloride 6 % w/v in water, AI compound 0.5 % w/v, 25 °C) did it give?
A: 16.318 ± 2.762 μg/cm^2/h

Q: With `Cc1ncc(CO)c(CO)c1O.Cl` [Vitamin B6] as the compound, how does the “Skin penetration rate of Al compound” value (2-(Diethylamino)ethyl 2-(4-isobutylphenyl)propionate hydrochloride 6% w/v, Al compound 0.5% w/v, water, 25 °C) read?
A: 15.251 ± 2.015 μg/cm^2/h

Q: And the “Skin penetration rate of AI compound” value (with D-leucine isopropyl ester hydrochloride 6 % w/v in water, AI compound 0.5 % w/v, 25 °C)?
A: 13.138 ± 2.131 μg/cm^2/h

Q: What about the “Skin penetration rate of AI compound” value (with L-leucine isopropyl ester hydrochloride 6 % w/v in water, AI compound 0.5 % w/v, 25 °C) of the same compound?
A: 13.252 ± 2.123 μg/cm^2/h
